# Reference: article PMC5513743 (Journal of medical virology, 2017)
# Experiments:
# [1] = test system: HCV replicon H/FL-Neo (genotype 1a (H77), full length construct); details: HCV genotype 1A replicon
# [2] = test system: replicon cell line containing H/FL-Neo
substance,measurement,setting,value
"Interferon αIFNB2: recombinant human interferon alpha 2b, positive antiviral assay control",S.I. (CC50/EC50),[1],>5556
same,EC50,[1]; interferon in IU/mL,1.8 ± 0.2 IU/mL
same,EC90,[1]; interferon in IU/mL,8.0 ± 0.6 IU/mL
same,CC50,[2],">10,000 IU/mL"
